Experimental data reported in patent publication US9828641B2, “Systemic genotoxicity as blood marker for allergic inflammation” (The Regents of the University of California, priority 2013, dated 2017).

Legend:
peripheral leukocytes = conditions: wildtype mice, DSS 7 days, 3% w/v; p<0.01
[1] = Protocol: Acute colitis was defined as a 7 day treatment, and chronic colitis as any further treatment including remission periods. Control animals received sterile acidified water only. Symptoms (weight loss, stool consistency, gross bleeding) were recorded daily for calculation of disease activity index (23).
The disease activity index (DAI) is the average combined score of weight loss (0-4), stool consistency (0-4), and bleeding (0-4), used to score clinical symptoms (23).

dextran sulfate sodium [DSS]
8-oxoguanine in peripheral leukocytes (peripheral leukocytes): significant increase
Nitrotyrosine in peripheral leukocytes (peripheral leukocytes): significant increase
Onset of rectal bleeding ([1]; 3% DSS, cycle 1): 4 days
Mortality ([1]; wildtype mice, after three cycles of 3% DSS): no mortalities were observed
